Reference: US12636270B2, “Levothyroxine liquid formulations” (Fresenius Kabi USA, LLC, priority 2016, dated 2026)

Conditions: 55° C., 4 W; NaI 280 mcg/mL, pH 9.5; 20 mcg/mL, tromethamine 10 mg/mL, 5.4 mg/mL sodium chloride in water
Procedure: Separate samples containing 20 mcg/mL levothyroxine sodium, 10 mg/mL tromethamine, 5.4 mg/mL sodium chloride, and sodium iodide at a concentration of 280 mcg/mL, 140 mcg/mL, or 6 mcg/mL in water were adjusted to various pH levels. 5 mL of each sample was filled into 10 cc flint molded vials, and the vials were stoppered with 20 mm stoppers under nitrogen.
The HPLC conditions were as follows: • Column: ACE Excel 3 C18-PFP, 4.6×150 mm HPLC column • Mobile Phase A: Sodium heptanesulfonate/Acetonitrile/Water/Methanol/H3PO4 (4.0 g/800 mL/1600 mL/1600 mL/4.0 mL) • Mobile Phase B: Sodium heptanesulfonate/Acetonitrile/Water/Methanol/H3PO4 (4.0 g/2000 mL/200 mL/1800 mL/4.0 mL) • Diluent: 0.01 N NaOH • Column temperature: 25° C. • Flow rate: 1.5 mL/min • Injection volume: 80 μL • Autosampler temperature: 5° C. • Detection: UV at 225 nm • Separation mode: Gradient Gradient Program: […]

SMILES: N[C@@H](Cc1cc(I)c(Oc2cc(I)c(O)c(I)c2)c(I)c1)C(=O)[O-].[Na+] [Levothyroxine Na, 4-(4-hydroxy-3,5-diiodophenoxy)-3,5-diiodo-L-phenylalanine sodium]
- % Liothyronine: 1.63%
